Glioma ERSR ind: inducers of ER stress response in human glioma cells. U87-MG GRP78 promoter luciferase reporter, 16 h. Potency, µM, for the others: top-dose activation, usual class: activators. hit rate 0.02% among 420,000; note: potency is the fitted concentration of half-maximal effect; series mostly up to about 76 µM; % of control where 0% means no effect; nearly all actives have a fitted effect of over 35% in size
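Stably transfected U87-MG human glioma cells carrying a GRP78-based luminescent sensor were seeded at 1000 cells/well, pin-dosed with compounds and incubated 16 h. Luciferase reagent was then added, and end-point luminescence was read after 10 min at room temperature.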
Nrf2 inh: inhibitors of Nrf2 signaling. A549 ARE-Fluc reporter, luciferase luminescence, 18-24 h. Potency, µM (highest dose often 46 µM), without a hit: at the highest dose activity change, negative = inhibition, usual class: inhibitors. hit rate 2.1% among 360,000. AID 504444; note: potency is the fitted concentration of half-maximal effect; % is set by controls: 0 for no effect and ±100 for the full control effect; nearly all actives have a fitted effect of over 60% in size
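Nrf2 activity is the BugLite luminescence, read 15 min after reagent at room temperature, following CellTiter-Fluor cytotoxicity readout (30 min, 37C). Compound titrations were applied for 18-24 h to 5000 A549 ARE_Fluc cells/well in 5% FBS OPTI-MEM.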
Nrf2 ARE act: Nrf2 pathway activation | Potency, µM (doses to about 46.1 µM), without a hit: at the top dose activation, most hits filed as activators | hit rate 0.31% among 410,000 | AREc32 ARE-luciferase reporter (MCF7-derived line), luminescence, 24 h; note: potency is the fitted concentration of half-maximal effect; % of control where 0% means no effect; nearly all actives have a fitted effect of over 65% in size
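Nrf2 activation is followed as ARE-luciferase induction in the AREc32 line after one day of compound treatment; luminescence is read with Steady-Glo.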
A549 viability: A549 cytotoxicity, counter-screen for Nrf2 inhibitors. AID 504648. hit rate 0.16% among 390,000. A549 ARE-Fluc cells, CellTiter-Fluor viability, 18-24 h. Potency, µM (series often up to 46 µM), for the others: at the highest dose activity change, negative = cytotoxicity, usual class: inhibitors; note: potency is the fitted concentration of half-maximal effect; % is set by controls: 0 for no effect and ±100 for the full control effect
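A549 ARE-Fluc cells in 5% FBS OPTI-MEM, 5000 cells/well, rested 2 h then exposed to compounds in concentration-response for 18-24 h at 37 °C. Viability by CellTiter-Fluor fluorescence (Ex 405/Em 525) after 30 min; luciferase luminescence (BugLite, 15 min, RT) read afterwards.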
miR-21 reporter: miR-21 reporter, rising signal; Potency, µM (top dose mostly 38.3 µM), for the others: at the highest dose reporter change, positive = more light; 340,000 tested, under 10 active; HeLa miR-21 FLuc reporter, luciferase, 48 h; active = well fitted rising curve with a large enough effect; inconclusive = small, poorly fitted or top-dose-only effect; inactive = no such curve, though single readings can be large or run the other way;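 note: % of control where 0% means no effect; miR-21 action dims this reporter so a rising signal means less miR-21 action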
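Luminescence from a firefly luciferase reporter carrying a miR-21 binding site downstream, stably expressed under a CMV promoter in HeLa cells that make miR-21 endogenously, reports miRNA modulation after 48 h compound exposure up to approximately 40uM final.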
TSG101-PTAP inh: blocks PTAP/TSG101 interaction to inhibit HIV-1 budding; Q99816; Fluorescence polarization, FITC-PTAP peptide / Tsg101 binding; Potency, µM (titrated, usually from 115 µM), inactives show at the highest dose activity change, negative = inhibition, most hits filed as inhibitors; 340,000 tested, under 10 active; active = well fitted inhibition curve with a large enough effect in the main read-out, with a control signal flat, not every such curve was filed as active; inconclusive = small, poorly fitted or top-dose-only effect, or effect the other way, or a change in a side signal; inactive = no such curve, though single readings can be large or run the other way; note: potency is the fitted concentration of half-maximal effect; % of control where 0% means no effect
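Fluorescence polarization binding of Tsg101 binding domain (10 uM final) to FITC-labeled PTAP peptide (50 nM final) in HEPES pH 7.5 buffer with NaCl, Tween 20, EDTA, TCEP. Compounds added before peptide; binding 20 min at RT.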
* marks the source's active call; other numbers are inactive results; ? = inconclusive; · = no result. Rows were chosen to be rich in hits. Some 2.1% of all compounds tested hit in one or more screens of this group. Unless noted, calls come from the whole dose curve; as a rule, active = well fitted curve in the direction sought with a large enough effect; inconclusive = small, poorly fitted or top-dose-only effect, or another doubt; inactive = no such curve, though single readings can be large; an effect the other way counts as inactive or inconclusive.

nr	SMILES	Glioma ERSR ind	Nrf2 inh	Nrf2 ARE act
1	Cn1c2ccccc2c2nnc(SCCOc3ccccc3)nc21	-0.5%	5.17µM*	·
2	Cc1nn(Cc2ccccc2)c(C)c1C(=O)OCC(=O)c1cc(C)n(CC(F)(F)F)c1C	-8.0%	16.4µM*	0.8%
3	Cc1ccc(-c2nnc(NC3CCCCC3)c3ccccc23)cc1S(=O)(=O)N1CCN(C)CC1	-3.8%	23.1µM*	-0.4%
4	O=C(c1cc(S(=O)(=O)N2CCN(c3ccccc3)CC2)ccc1Cl)N1CCCCCCC1	-1.8%	20.6µM*	0.2%
5	O=S(=O)(c1ccc2ccccc2c1)N1CCN(c2ccc(O)cc2)CC1	-2.2%	10.3µM*	9.1%
6	CC1CN(C(=O)c2cc(S(=O)(=O)N3CCN(c4ccccc4)CC3)ccc2Cl)CC(C)O1 (configuration not stated)	-1.7%	?	-0.3%
7	Cc1ccccc1C1(CC(=O)N2CCCCC2c2cccnc2)CC(=O)N(C2CCCC2)C1=O (configuration not stated)	-2.3%	·	·
8	Cc1cnc(-n2ncc(C(=O)N(C)C3CCOC3)c2-c2cccs2)nc1-c1ccc(F)cc1 (configuration not stated)	-0.2%	·	·
9	Cc1cc(C(=O)Nc2ccccc2-c2nc(CNC(=O)C3COc4ccccc4O3)c(C)o2)c(C)o1 (configuration not stated)	-0.2%	·	·
10	CC/C=C(/C(=O)N[C@@H]1C(=O)N2C(C(=O)OCOC(=O)C(C)(C)C)=C(COC(N)=O)CS[C@H]12)c1csc(N)n1	-1.7%	·	·
11	CCOc1cc(/C=C/C(=O)c2ccc(O)cc2)ccc1OCC(=O)N(C)C	0.8%	-12.8%	?
12	CCOc1cc(/C=C/C(=O)c2ccc3c(c2)OCCO3)ccc1OCC(=O)N(C)C	-8.7%	-16.7%	11.2µM*

nr	A549 viability	miR-21 reporter	TSG101-PTAP inh
1	-10.0%	·	·
2	-8.5%	14.6%	-2.6%
3	?	0.1%	-0.2%
4	-7.4%	·	3.2%
5	-1.5%	·	-2.5%
6	-8.9%	·	-1.0%
7	·	·	·
8	·	·	·
9	·	·	·
10	·	·	·
11	-13.8%	?	-0.5%
12	1.9%	?	0.1%

(more compounds)
nr	SMILES	Glioma ERSR ind	Nrf2 inh	Nrf2 ARE act
13	NC(=O)C1CCN(C(=O)COc2ccc(S(=O)(=O)NC3CCCC3)cc2)CC1	-4.9%	2.1%	-0.2%
14	O=C(COc1ccc2c3c(c(=O)oc2c1)CCC3)N1CCN(c2ccc(F)cc2)CC1	-1.8%	23.1µM*	3.4%
15	O=C(COc1ccc(S(=O)(=O)NC2CCCCC2)cc1)N1CCN(c2ccc(F)cc2)CC1	-2.5%	14.6µM*	0.3%
16	O=C(COc1ccc2c3c(c(=O)oc2c1)CCCC3)N1CCN(c2ccc(F)cc2)CC1	-4.7%	0.2%	0.0%
17	O=S(=O)(c1ccc2ncccc2c1)N1CCN(c2nc(-c3cccs3)nc3ccccc23)CC1	·	?	·
18	COc1ccc(C(=O)Sc2ccc(Cl)cc2)cc1OC	-2.4%	20.6µM*	6.0%
19	COc1ccc(C(=O)Sc2ccc(C)cc2)cc1OC	3.3%	-16.1%	?
20	O=C1c2ccccc2C(=O)N1c1cncc2ccccc12	·	20.8%	·
21	O=C(N[C@@H]1CCC(=O)N(CC[C@H](Sc2ccc(Br)cc2)c2ccccc2)CC1)OCc1ccccc1	-4.9%	?	-0.3%
22	COc1ccc(S[C@@H](CCN2CC[C@H](NC(=O)OCc3ccccc3)CCC2=O)c2ccccc2)cc1	-3.2%	18.4µM*	2.7%
23	N#Cc1ccc(OCC(=O)N2CCN(S(=O)(=O)c3ccc(Cl)s3)CC2)cc1	-3.2%	23.1µM*	-0.3%
24	Cc1nc2ccccc2n1CCOc1ccc(F)cc1	-2.9%	20.6µM*	3.2%

nr	A549 viability	miR-21 reporter	TSG101-PTAP inh
13	0.4%	-1.4%	-3.0%
14	-2.9%	4.4%	-1.0%
15	0.6%	1.6%	-9.2%
16	10.1%	1.4%	-4.9%
17	-14.4%	·	·
18	?	0.2%	-6.6%
19	-14.2%	0.1%	-1.5%
20	4.0%	·	·
21	-4.5%	·	0.4%
22	-23.9%	·	-1.6%
23	-11.6%	·	-2.4%
24	5.6%	-7.8%	-4.9%

The results go on:
nr	SMILES	Glioma ERSR ind	Nrf2 inh	Nrf2 ARE act
25	CC(=O)c1ccc(NS(=O)(=O)c2ccc(C(C)(C)C)cc2)cc1	-1.2%	8.2µM*	1.9%
26	COc1cc(=O)n2c(c1C(=O)N(C)Cc1nonc1C)CCN(Cc1ccccc1F)CC2	-2.8%	·	·
27	COc1cccc(CN2C(=O)NC(C)(C3CCN(Cc4cccc(O)c4)CC3)C2=O)c1OC (configuration not stated)	-2.6%	·	·
28	Cc1cc(C)c(/C([O-])=C(/C(=S)Nc2ccc(SC(F)F)cc2)[n+]2ccccc2)cc1C	5.7%	-6.9%	3.7%
29	[O-]/C(=C(\C(=S)Nc1ccc(SC(F)F)cc1)[n+]1ccccc1)c1cc(Cl)ccc1Cl	-3.2%	20.6µM*	0.2%
30	COc1ccc(-n2nnnc2SCC(=O)Nc2ccccc2N2CCOCC2)cc1OC	-5.8%	-1.9%	-0.3%
31	CC(=O)c1cccc(-n2nnnc2SCC(=O)Nc2ccccc2N2CCCCC2)c1	-5.0%	23.1µM*	3.3%
32	COC(=O)C1CCCCN1Cc1ccc2c(c1)CN(Cc1cnn(-c3ccccc3)c1)CCO2 (configuration not stated)	-7.9%	·	·
33	Cc1ccc(C(=O)N/N=C/c2ccc(-c3ccc(Br)cc3[N+](=O)[O-])o2)o1	1.5%	?	7.94µM*
34	Cc1ccc(C(=O)N/N=C\c2ccc(Br)o2)o1	-0.2%	-11.1%	6.3%
35	COc1ccccc1C(=O)NCCC(=O)Nc1ccc(S(=O)(=O)N2CC(C)CC(C)C2)cc1 (configuration not stated)	-2.5%	13µM*	-0.7%
36	COc1ccccc1C(=O)NCC1CCN(c2ccc(S(=O)(=O)N3CCOCC3)cc2)CC1	0.0%	23.1µM*	2.0%

nr	A549 viability	miR-21 reporter	TSG101-PTAP inh
25	-16.8%	2.8%	-2.8%
26	·	·	·
27	·	·	·
28	-6.9%	-5.9%	-0.9%
29	?	2.9%	1.9%
30	2.8%	-9.2%	-5.5%
31	-15.2%	13.5%	0.1%
32	·	·	·
33	-11.1%	-9.4%	-4.8%
34	6.2%	-14.2%	-5.9%
35	-6.0%	·	-3.8%
36	?	21.1%	-4.6%

Following part.
nr	SMILES	Glioma ERSR ind	Nrf2 inh	Nrf2 ARE act
37	O=S(=O)(c1ccc(NC(=S)N2CCN(c3ccc(O)cc3)CC2)cc1)N1CCOCC1	-2.5%	11.6µM*	0.5%
38	O=C(NCC1CCN(c2ccc(S(=O)(=O)N3CCOCC3)cc2)CC1)Nc1ccccc1	3.9%	14.6µM*	4.1%
39	Cc1cnc(-n2ncc(C(=O)N(C)C3CCOC3)c2C)nc1-c1ccc(F)cc1 (configuration not stated)	3.2%	·	·
40	O=C(c1cc2nc(-c3cccs3)cc(C(F)(F)F)n2n1)N1CCCc2ccccc21	-2.0%	18.4µM*	0.4%
41	Cc1c(CCC(=O)N2CCC[C@H]2C(=O)O)c(=O)oc2c(C)c3oc4c(c3cc12)CCCC4	-9.3%	6.51µM*	-2.7%

nr	A549 viability	miR-21 reporter	TSG101-PTAP inh
37	-17.9%	26.3%	0.2%
38	-15.7%	2.4%	-8.1%
39	·	·	·
40	-17.2%	-4.6%	-0.9%
41	-8.9%	11.5%	-2.0%

Exported with each value named: entries from further up.
(38) O=C(NCC1CCN(c2ccc(S(=O)(=O)N3CCOCC3)cc2)CC1)Nc1ccccc1
  Glioma ERSR ind: 3.9%
  Nrf2 inh: 14.6µM*
  Nrf2 ARE act: 4.1%
  A549 viability: -15.7%
  miR-21 reporter: 2.4%
  TSG101-PTAP inh: -8.1%

(39) Cc1cnc(-n2ncc(C(=O)N(C)C3CCOC3)c2C)nc1-c1ccc(F)cc1 (configuration not stated)
  Glioma ERSR ind: 3.2%
  Nrf2 inh: ·
  Nrf2 ARE act: ·
  A549 viability: ·
  miR-21 reporter: ·
  TSG101-PTAP inh: ·
